According to article doi:10.1101/2025.06.17.660082 (bioRxiv, 2025):

Molecular target: T1, mouse GIPR on CRE-Luc2P reporter cells (mouse, UniProt Q0P543 19-460)
T1 sequence (looked up): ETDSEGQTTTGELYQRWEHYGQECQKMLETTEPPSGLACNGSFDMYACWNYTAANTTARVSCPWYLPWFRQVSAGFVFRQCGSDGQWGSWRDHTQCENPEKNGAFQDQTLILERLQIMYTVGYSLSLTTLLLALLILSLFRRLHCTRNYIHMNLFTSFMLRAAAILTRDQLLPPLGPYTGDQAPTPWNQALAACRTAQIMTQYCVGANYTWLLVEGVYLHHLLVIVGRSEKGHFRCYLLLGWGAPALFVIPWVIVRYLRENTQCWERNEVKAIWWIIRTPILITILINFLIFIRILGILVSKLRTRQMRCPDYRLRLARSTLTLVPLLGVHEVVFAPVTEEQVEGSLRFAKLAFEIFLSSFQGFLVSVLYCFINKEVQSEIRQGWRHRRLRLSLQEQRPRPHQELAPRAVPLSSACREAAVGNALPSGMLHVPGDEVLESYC
Experiment: cell-based or functional assay

YAEGTFISDYSIAMDKIHQQDFVNWLLAQKGKKNDWKHNITQ (ligand, UniProt P09681 52-93, looked up) [human GIP (gastric inhibitory peptide)]
luciferase (cAMP) reporter in CRE-Luc2P cells overexpressing mGIPR, EC50: 2.85 nM
